Values joined by “and” are separate entries in the source; they are usually repeats but may differ in a detail not shown here. Identical values can stand only once. Only a part is listed here, and it is no random draw. Inconclusive results are not listed. More than one record can exist for a structure, and the calls need not agree. Active and inactive are the calls of the source. Calls follow the shape of the dose curve; as a rule, active = well fitted inhibition curve with a large enough effect in the signal ratio in the repeat runs, with a control signal flat; inconclusive = weak or mixed curves, or effect the other way; inactive = flat fitted curve, though single readings scatter; the % refers to the signal ratio.
% is scaled to controls: 0 for no effect and ±100 for the full control effect.

Chains of the proteins cited; added tags and fusions are not shown.
UniProt P14416, whole entry, looked up: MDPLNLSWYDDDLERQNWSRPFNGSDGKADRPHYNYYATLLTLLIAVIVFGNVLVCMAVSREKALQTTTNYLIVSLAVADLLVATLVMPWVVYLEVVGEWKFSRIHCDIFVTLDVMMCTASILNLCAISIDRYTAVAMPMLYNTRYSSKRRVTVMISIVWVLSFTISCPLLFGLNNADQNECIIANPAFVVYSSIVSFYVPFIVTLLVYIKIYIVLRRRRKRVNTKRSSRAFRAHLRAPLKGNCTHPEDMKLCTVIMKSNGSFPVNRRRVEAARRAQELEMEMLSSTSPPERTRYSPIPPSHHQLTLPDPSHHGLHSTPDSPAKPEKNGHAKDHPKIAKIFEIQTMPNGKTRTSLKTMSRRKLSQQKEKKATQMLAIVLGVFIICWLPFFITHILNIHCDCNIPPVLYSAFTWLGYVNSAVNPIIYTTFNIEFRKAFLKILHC

In the assay the target is D(2) dopamine receptor (Homo sapiens) (UniProt P14416). Briefly: Dopamine D2 receptor (DRD2) small molecule antagonists, cell-based qHTS assay (AID 1963595). The following applies: HEK293-DRD2 cAMP HTRF antagonist mode; at 92.4 µM (top of the series) unless noted. The source says: National Center for Advancing Translational Sciences [NCATS]
Division of Preclinical Innovation [DPI]
U.S. Environmental Protection Agency [EPA]
National Institutes of Environmental Health Sciences [NIEHS]
National Toxicology Program [NTP]
U.S. Food and Drug Administration [FDA]
DRD2 is the D2 subtype of the dopamine receptor, which is coupled to Gi subtype of G protein-coupled receptor. This G protein-coupled receptor inhibits adenylyl cyclase activity. The DRD2-HEK293 cell line stably expressing D2 dopamine receptor can be used for screening agonists and antagonists of interactions between D2 and its ligands. The Hek293-DRD2 cAMP assay is based on HTRF technology. It measures changes of cAMP accumulation in response to Gi coupled GPCR activation or inhibition.
Tox21 Assay Protocol Summary:
DRD2-Hek293 cells were dispensed at 600 cells/3uL/well in 1536-well white plates using a Multidrop Dispenser. After the assay plates were incubated at a 37 C/5% CO2 incubator for 24 h, 1 uL of Ro20-1724 at final concentration of 0.1 mM was transferred to the assay plate by a Flying Reagent Dispenser. Following Ro20-1724 addition, 23 nL of compound dissolved in DMSO, positive controls or DMSO only was added to the assay plates via Wako pintool station. The assay plates were incubated at room temperature for 10 min. Next, 1 uL of mixture of NKH477 (final concentration at 200 nM) and quinpirole (final concentration at 12 nM) was added into the plates. After the assay plates were incubated at room temperature for an additional 30 min, 2.5 ul/well of cAMP-d2 and 2.5 ul/well of anti-cAMP-cryptate were added respectively into the assay plates using a Flying Reagent Dispenser. The plates were incubated at room temperature for 1 h. The fluorescence intensity in the plates was measured at 340 nm excitation and 665 & 620 nm emission by an Envision plate reader.
(qHTS replaces the single test concentration by a dilution series.)
Consider `CN(C(=O)Cc1ccc(Cl)c(Cl)c1)[C@H]1CC[C@@]2(CCCO2)C[C@@H]1N1CCCC1`, for which the activity change, negative = inhibition was inactive: 10.5% [at 42.5 µM].
As for `COP(=S)(Cl)OC`, the activity change, negative = inhibition was inactive: 0.103%.
Under `CCOC(=O)Cl` stands inactive: 3.03%; under `O=P(Cl)(Oc1ccccc1)Oc1ccccc1`, inactive: -0.429%; under `Cc1cc([N+](=O)[O-])cc([N+](=O)[O-])c1O`, inactive: -2.4%.
For the molecule `CCNC(C)Cc1ccc2c(c1)OCO2` (stereo not drawn), the activity change, negative = inhibition was inactive: -1.5%.
Regarding `Cc1cc([N+](=O)[O-])c(O)c([N+](=O)[O-])c1`, the activity change, negative = inhibition is inactive: -2.3%.
Under `O=[N+]([O-])c1ccc(S(=O)(=O)O)c([N+](=O)[O-])c1` stands inactive: 4.83%; under `CCCCOP(OCCCC)OCCCC`, inactive: -2.34%; under `CC(C)OP(=S)(OC(C)C)SCCNS(=O)(=O)c1ccccc1`, inactive: 0.0702%.
As to `CCOP(=S)(CC)Sc1ccccc1` (stereo not drawn), the activity change, negative = inhibition was inactive: 1.79%.
For `O=C(Cl)OCCOC(=O)Cl` the value was inactive: 8.1%; for `O=[N+]([O-])c1ccc([N+](=O)[O-])cc1`, inactive: -12.4%; for `O=C(Cl)Oc1ccccc1`, inactive: 2.89%.
With `COC(=O)Cl`, the activity change, negative = inhibition is inactive: -1.3%.
Under `NC(=O)Nc1ccc([As](=O)(O)O)cc1` stands inactive: 0.758% [at 42.5 µM]; under `ClP(Cl)c1ccccc1`, inactive: 1.41%.
For `CCCCO[P+](=O)OCCCC`, the activity change, negative = inhibition was inactive: 1.93% and inactive: -3.02%.
On to `O=[P+](Oc1ccccc1)Oc1ccccc1`, for which the activity change, negative = inhibition is inactive: -9.9%.
For `CN(N=O)C(=N)N[N+](=O)[O-]` the value was inactive: -0.221%; for `CCCCC(CC)CO[P+](=O)OCC(CC)CCCC` (stereo not drawn), inactive: -3.98%; for `CN(C(=O)Cc1cccc2occc12)[C@H]1CC[C@@]2(CCCO2)C[C@@H]1N1CCCC1`, inactive: 22%.
Under `O=P(Cl)(Cl)c1ccccc1` stands inactive: 14.8%.
For `CCC(C)(OOC(C)(C)C)OOC(C)(C)C`, the activity change, negative = inhibition was inactive: 3.05% [at 18.9 µM].
Take `O=[p+]1oc2ccccc2c2ccccc21` (stereo not drawn): the activity change, negative = inhibition is inactive: -9.78%.
Under `CC(C)CCCCCCCOP(OCCCCCCCC(C)C)Oc1ccccc1` stands inactive: -16.3%.
For `CCCCCCCCCCCCCC[P+](CCCCCC)(CCCCCC)CCCCCC`, the activity change, negative = inhibition was inactive: -3.58%.
Turning to `CN(C(=O)Cc1ccccc1)[C@H]1CC[C@@]2(CCCO2)C[C@@H]1N1CCCC1`, the activity change, negative = inhibition was inactive: 3.34% [at 42.5 µM].
